Source: PubChem BioAssay AID652162 (Broad Institute, 2013)
This is a selection; strong and weak results do not stand in their true shares. Some tests of the compounds listed are not included; inactive here does not mean inactive elsewhere. Active and inactive are the calls of the source. Rule as the data show it: active = inhibition above about 10%; inactive = the rest.

molecular target: Toxin B (Clostridioides difficile) (UniProt P18177); experiment: TcdB glycohydrolase inhibitors, primary screen, biochemical, single point, plate reader (AID 652162); conditions: TcdB glycohydrolase enzymatic assay, at 9.99 µM, stronger effect = higher value

Row | SMILES | inhibition
1 | CCN(CC)CC(C)C(C)OC(=O)C(O)(c1ccccc1)c1ccccc1 (configuration not stated) | inactive: 0.441%
2 | COc1cc(SC)ccc1C(=O)NCC1(N(C)C)CCCCC1 | inactive: 0.473%
3 | Cc1ccc(C(=O)NCC2(N3CCCCC3)CCCCC2)cc1 | inactive: 0.978%
4 | O=C(NCC1(N2CCCCC2)CCCCC1)c1cc([N+](=O)[O-])ccc1Cl | inactive: -0.053%
5 | CN1[C@@H]2CC[C@H]1CC(OC(=O)C(O)(c1ccccc1)c1ccccc1)C2 (some centres not stated) | inactive: 1.28%
6 | C=CCN1CCN(CCOC(=O)C(O)(c2ccccc2)c2ccccc2)CC1 | inactive: -1.23%
7 | O=C(NCC1(N2CCCCC2)CCCCC1)c1cc(F)c(F)cc1Cl | inactive: 0.418%
8 | COc1ccc(C(=O)NCC2(N(C)C)CCCCC2)cc1 | inactive: 1.55%
9 | Cc1cc(C(=O)NCC2(N3CCCCC3)CCCCC2)ccc1[N+](=O)[O-] | inactive: -0.716%
10 | O=C(NCC1(N2CCCCC2)CCCCC1)c1cccc(Br)c1 | inactive: 1.45%
11 | Cc1ccccc1C(=O)NCC1(N2CCCCC2)CCCCC1 | inactive: 0.695%
12 | CN(C)c1ccc(C(=O)NCC2(N(C)C)CCCCC2)cc1 | inactive: 0.985%
13 | CN(C)C1CCCC1OC(=O)C(O)(c1ccccc1)c1ccccc1 (configuration not stated) | inactive: 0.725%
14 | COc1cccc(C(=O)NCC2(N3CCCCC3)CCCCC2)c1 | inactive: 0.734%
15 | COc1ccc(Cl)cc1C(=O)NCC1(N(C)C)CCCCC1 | inactive: -4.72%
16 | O=C(NCC1(N2CCCCC2)CCCCC1)c1cccc(Cl)c1 | inactive: -0.178%
17 | CN(C)C1(CNC(=O)c2ccc(Br)cc2)CCCCC1 | inactive: 0.316%
18 | COc1cc(C(=O)NCC2(N(C)C)CCCCC2)c([N+](=O)[O-])cc1OC | inactive: 1.3%
19 | C=C(C)C#CC(O)(C(=O)OC1CCN(C)CC1)c1ccccc1 (configuration not stated) | inactive: 3.55%
20 | COc1ccc(Br)c(C(=O)NCC2(N3CCCCC3)CCCCC2)c1 | inactive: 0.191%
21 | CC(C)Oc1ccc(C(=O)NCC2(N(C)C)CCCCC2)cc1 | inactive: 0.7%
22 | O=C(OCCN1CCCC1)C(O)(c1ccccc1)c1ccccc1 | inactive: 0.423%
